miR-21 FLuc – miR-21 reporter, rising signal; Potency, µM (titrated, usually from 38.3 µM), without a hit: at the highest dose reporter change, positive = more light; AID 2288; 340,000 tested, under 10 active; HeLa miR-21 FLuc reporter, luciferase, 48 h; active = well fitted rising curve with a large enough effect; inconclusive = small, poorly fitted or top-dose-only effect; inactive = no such curve, though single readings can be large or run the other way;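 note: % of control where 0% means no effect; miR-21 action dims this reporter so a rising signal means less miR-21 action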
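Using DMEM plus 10% FBS, HeLa miR-21-FLuc cells are incubated with test compounds (final up to about 40uM) for 48 hours; firefly luciferase signal is then imaged following reagent-mediated lysis.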
ClpP mod – qHTS Assay for Activators of ClpP | ATP-dependent Clp protease proteolytic subunit (Bacillus subtilis (strain 168)), P80244 | purified B. subtilis ClpP, FRET peptide cleavage, 20 min | Potency, µM (top dose mostly 57.5 µM), inactives show at the highest dose activity change, negative = active | hit rate 1.9% among 340,000; active = well fitted falling curve with a large enough effect; inconclusive = small, poorly fitted or top-dose-only effect; inactive = no such curve, though single readings can be large or run the other way; also: potency is read from the fitted curve at half-maximal effect; the source files actives as falling curves though it sought activators and does not explain the sign; nearly all actives have a fitted effect of over 65% in size
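Buffer: 100 mM Tris/HCl pH8, 100 mM KCl, 0.05% low protease BSA, 2.5% glycerol, 0.01% Tween-20. ClpP 10 microg/mL final; 20 min RT; delta FRET normalized to ADEP and DMSO controls.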
A549 tox – A549 cytotoxicity, counter-screen for Nrf2 inhibitors; A549 ARE-Fluc cells, CellTiter-Fluor viability, 18-24 h; Potency, µM (highest dose often 46 µM), without a hit: at the top dose activity change, negative = cytotoxicity, usual class: inhibitors; hit rate 0.16% among 390,000; AID 504648; also: potency is read from the fitted curve at half-maximal effect; % is scaled to controls: 0 for no effect and ±100 for the full control effect
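A549 ARE_Fluc cells in 5% FBS OPTI-MEM were exposed to compounds in concentration-response for 18-24 h at 37 deg C. Viability was read by CellTiter-Fluor fluorescence (Ex 405/Em 525) after 30 min, before the luciferase read.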
p53 reactivation – re-activators of mutant p53; H1299 p53-A138V BP100-luciferase reporter, luminescence, 24 h; Potency, µM (top dose mostly 92.2 µM), inactives show at the top dose activity change, positive = activation, usual class: activators; AID 504706; hit rate 0.063% among 320,000; also: potency is read from the fitted curve at half-maximal effect; % of control where 0% means no effect; nearly all actives have a fitted effect of over 45% in size
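p53-null H1299 cells stably carrying temperature-sensitive p53-A138V and a BP100-luciferase reporter were pinned with compounds (4-point, 1:5 series) and held 24 hrs at 37 deg C. Luminescence was read 10 min after detection reagent.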
Nrf2 inh – inhibitors of Nrf2 signaling; A549 ARE-Fluc reporter, luciferase luminescence, 18-24 h; Potency, µM (top dose mostly 46 µM), for the others: at the highest dose activity change, negative = inhibition, actives largely listed as inhibitors; hit rate 2.1% among 360,000; AID 504444; also: potency is read from the fitted curve at half-maximal effect; % is scaled to controls: 0 for no effect and ±100 for the full control effect; nearly all actives have a fitted effect of over 60% in size
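Quantitative HTS in A549 cells stably bearing an antioxidant response element-firefly luciferase construct. Inhibition of Nrf2-driven transcription was scored by luminescence after 18-24 h of compound exposure at 37 °C.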
Nrf2 ARE act – Nrf2 pathway activation. AREc32 ARE-luciferase reporter (MCF7-derived line), luminescence, 24 h. Potency, µM (series often up to 46.1 µM), without a hit: at the top dose activation, most hits filed as activators. hit rate 0.31% among 410,000. AID 624171; also: potency is read from the fitted curve at half-maximal effect; % of control where 0% means no effect; nearly all actives have a fitted effect of over 65% in size
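Steps: seed AREc32_Fluc cells (1000/well, 5% FBS OPTI-MEM); incubate overnight at 37 deg C; add 23 nL compound; incubate 24 hr; add Steady-Glo; hold 30 min RT; read luminescence.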
The depositor's hits bear a star; ? = inconclusive; . = no result; [ ] = another dose, or the depositor's remark. An excerpt weighted towards active compounds, which were near 3.7% of everything screened. Unless noted, calls follow the shape of the dose curve; as a rule, active = well fitted curve in the direction sought with a large enough effect; inconclusive = small, poorly fitted or top-dose-only effect, or another doubt; inactive = no such curve, though single readings can be large; an effect the other way counts as inactive or inconclusive.

SMILES	miR-21 FLuc	ClpP mod	A549 tox	p53 reactivation	Nrf2 inh	Nrf2 ARE act
COc1ccc(N2CCN(C(=O)Cn3nnc(-c4cccs4)n3)CC2)cc1	-5%	11%	3%	2%	10%	0%
O=C(Cn1c(-c2cccs2)cc2cc(F)ccc21)N1CCN(c2ccccc2)CC1	3%	16µM*	6%	.	-12%	1%
O=C(Cn1c(=O)c2cccn2c2ccc(F)cc21)N1CCN(c2ccccc2)CC1	27%	-10%	0%	.	10%	-1%
C(C#CCCCCCCCCC[n+]1ccccc1)#CCCCCCCCCC[n+]1ccccc1	?	.	?	-31%	12µM*	-2%
COc1ccccc1CNC(=O)C1CCCN(C(=O)c2cnn(-c3ccc(F)cc3)c2-n2cccc2)C1 (stereo not given)	8%	2%	0%	.	-3%	-1%
CCOc1ccc(C(=O)Nc2nc(-c3ccc(Br)cc3)ns2)cc1	-3%	0%	0%	.	6%	0%
Cc1ccccc1C(=O)N(Cc1nc(-c2ccc(Cl)cc2)no1)C(C)C	11%	1%	-5%	.	?	0%
Cc1occc1C(=O)N(C)Cc1nc(-c2ccc(Cl)cc2)no1	-4%	.	?	1%	21µM*	4%
COc1ccccc1C(=O)N(Cc1nc(-c2ccc(Cl)cc2)no1)C(C)C	17%	1%	-11%	-6%	21µM*	0%
CCc1ccc(NC(=O)N(CCN2CCOCC2)Cc2ccc3c(c2)CCCN3CC)cc1	-25%	-3%	16µM*	1%	?	3%
COC(=O)c1c(C)oc(C)c1S(=O)(=O)N1CCCCC1	0%	18µM*	3%	-4%	8%	1%
COc1ccc(CNC(=O)c2c(N)n(CCCN3CCOCC3)c3nc4ccccc4nc23)cc1	?	?	.	-10%	16µM*	-3%
Nc1c(C(=O)NCc2ccc(F)cc2)c2nc3ccccc3nc2n1CCCN1CCOCC1	27%	35µM*	?	-9%	?	-2%
Nc1c(C(=O)NCc2ccccc2)c2nc3ccccc3nc2n1CCCN1CCOCC1	21%	5%	-14%	-20%	?	-3%
COC(=O)c1c(N)n(CCCN2CCOCC2)c2nc3ccccc3nc12	2%	4%	17%	-4%	-24%	3%
CC(C)Cn1c(N)c(C(=O)NCCN2CCOCC2)c2nc3ccccc3nc21	-8%	28µM*	?	-22%	?	0%
COc1cccc(NC(=O)c2cnc(SCC(=O)N3CCOCC3)n(C)c2=O)c1	-22%	-4%	0%	.	.	-1%
Cc1nnc(SCC(=O)Nc2ccc(Br)cc2)[nH]c1=O	17%	1%	12%	.	13%	0%
Cc1ccc(C(=O)Nc2ccc(Cl)c(-c3nc4ncccc4o3)c2)c(C)c1	-24%	-16%	-13%	.	?	7%
Cc1ccc(CNC(=O)C(=O)NCCC2CCCCN2S(=O)(=O)c2ccc(C)cc2)cc1 (stereo not given)	.	-2%	9%	-2%	?	4%
O=C(NCCC1CCCCN1S(=O)(=O)c1ccc(F)cc1)C(=O)NCc1ccncc1 (stereo not given)	.	1%	5%	-2%	12µM*	-2%
O=C(NCCC1CCCCN1S(=O)(=O)c1ccc(Cl)cc1)C(=O)NCc1ccncc1 (stereo not given)	.	.	2%	-3%	21µM*	0%
COc1ccc2c(CN3CCCCCCC3)cc(=O)oc2c1	.	5%	.	.	.	6%
COc1ccc(C2NC(c3ccc(OC)cc3)C(c3ccccc3)C(=O)C2c2ccccc2)cc1 (stereo not given)	4%	0%	10%	-8%	-2%	0%
COc1ccc([C@@H]2C(C#N)=C(N)S[C@@H](c3ccccc3)[C@@H]2[N+](=O)[O-])cc1	-9%	1%	-15%	-2%	21µM*	2%
Cc1ccc(C2C3=C(CCCC3=O)Nc3nc(SCC(=O)NCc4ccco4)[nH]c(=O)c32)cc1 (stereo not given)	-5%	20µM*	-5%	1%	1%	0%
CCOC(=O)c1cc(-c2cccs2)nc2onc(C)c12	-6%	32µM*	19%	7%	10%	13%
CCOC(=O)c1sc(-c2cccs2)nc1C	-42%	13%	2%	11%	?	?
COC(=O)C1=C(C)NC(C)=C([N+](=O)[O-])[C@H]1c1ccccc1C(F)(F)F	.	1%	.	.	.	.
COC(=O)C1=C(C)NC(C)=C(C(=O)OCC(C)C)C1c1ccccc1[N+](=O)[O-] (stereo not given)	.	-1%	-10%	.	16µM*	3%
CCCCNC(=O)c1cc(-c2ccc(OC)cc2)nc2n[nH]c(-c3cccc([N+](=O)[O-])c3)c12	7%	-1%	-2%	.	.	-1%
O=S(=O)(c1ccccc1)c1nnn2c1nc(NCc1ccccc1)c1sccc12	1%	-9%	0%	.	-2%	-2%
CC(C)(C)C(=O)Nc1ccc(Sc2ccc([N+](=O)[O-])cc2)cc1	26%	-17%	1%	9%	16µM*	5%
CC(=O)Nc1ccc(Sc2ccc([N+](=O)[O-])o2)cc1	.	.	-11%	.	11%	?
CC(C)CC(NC(=O)C1CCC(C)CC1)C(=O)OCC(=O)c1ccc(Cl)cc1 (stereo not given)	-4%	-2%	8%	.	4%	-1%
Cc1n(Cc2ccccc2)c2cc([N+](=O)[O-])ccc2[n+]1Cc1ccccc1	1%	0%	3%	-4%	0%	-1%
Cc1n(Cc2ccccc2)c2ccccc2[n+]1Cc1ccccc1	?	-1%	-7%	.	16µM*	-1%
COc1cc2cc(C(=O)O)[nH]c2c(OC)c1OC	-1%	28µM*	2%	0%	7%	0%
Cc1ccc(C(=O)CSc2nnc(CNc3ccc(C)cc3C)n2Cc2ccco2)cc1	-2%	0%	?	-2%	23µM*	0%
O=C(CSc1nnc(-c2cc3ccccc3cc2O)n1Cc1ccco1)c1ccc(F)cc1	25%	-2%	.	-1%	23µM*	9%
O=C(CSc1nc2ccccc2c(=O)n1Cc1ccco1)c1ccc(F)cc1	-11%	-3%	2%[1.84 µM]	-3%	12µM*	0%
CCCn1c(C)cc(C(=O)CSc2nc3ccccc3c(=O)n2Cc2ccco2)c1C	-46%	-6%	-15%	25µM*	?	5%
CCN(CC)C(=O)CSc1nc2ccccc2c(=O)n1Cc1ccco1	11%	0%	-14%	.	.	1%

Six compounds drawn at random from the list so far:
SMILES	miR-21 FLuc	ClpP mod	A549 tox	p53 reactivation	Nrf2 inh	Nrf2 ARE act
CCCn1c(C)cc(C(=O)CSc2nc3ccccc3c(=O)n2Cc2ccco2)c1C	-46%	-6%	-15%	25µM*	?	5%
CC(=O)Nc1ccc(Sc2ccc([N+](=O)[O-])o2)cc1	.	.	-11%	.	11%	?
Cc1n(Cc2ccccc2)c2ccccc2[n+]1Cc1ccccc1	?	-1%	-7%	.	16µM*	-1%
O=C(CSc1nnc(-c2cc3ccccc3cc2O)n1Cc1ccco1)c1ccc(F)cc1	25%	-2%	.	-1%	23µM*	9%
Cc1n(Cc2ccccc2)c2cc([N+](=O)[O-])ccc2[n+]1Cc1ccccc1	1%	0%	3%	-4%	0%	-1%
Cc1ccc(C(=O)CSc2nnc(CNc3ccc(C)cc3C)n2Cc2ccco2)cc1	-2%	0%	?	-2%	23µM*	0%
